{"sequences": {"note": "By UniProt entry, the sequences of proteins in these tests, tags left out.", "UniProt P28907, whole entry": "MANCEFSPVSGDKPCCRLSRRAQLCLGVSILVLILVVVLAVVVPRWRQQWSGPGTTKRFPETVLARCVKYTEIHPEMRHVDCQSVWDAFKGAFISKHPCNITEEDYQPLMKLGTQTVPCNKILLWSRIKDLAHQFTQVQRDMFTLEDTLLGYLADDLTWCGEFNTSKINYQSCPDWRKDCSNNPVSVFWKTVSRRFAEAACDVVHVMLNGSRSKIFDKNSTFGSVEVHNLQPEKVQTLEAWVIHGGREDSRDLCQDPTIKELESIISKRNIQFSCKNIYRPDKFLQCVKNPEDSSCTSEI"}, "source": "patent US12514858B2", "about": "“CD38 inhibitors” (Astellas Engineered Small Molecules US, Incorporated, priority 2020, dated 2026)"}
{"biological_target": "Human CD38 (Homo sapiens (Human), UniProt P28907)", "experiment": "Determination of IC50 against human CD38 (CD38 Inhibitor Screening Assay Kit, glycohydrolase activity, fluorescence)", "assay_type": "biochemical", "conditions": "CD38 hydrolase enzyme, 30 min preincubation at room temperature, F-NAD substrate, excitation 300 nm, emission 410 nm; read-out: hCD38 IC50", "procedure": "CD38 hydrolase buffer (4×) was thawed on ice and 1×CD38 hydrolase buffer was prepared by diluting 4×CD38 hydrolase buffer with water. CD38 hydrolase enzyme was diluted to […] with 1×CD38 hydrolase buffer (10 ng/well). Master mix was prepared by mixing equal volumes of water and CD38 hydrolase buffer (4×) and 10 μl of the mix was added to all the wells. Following master mix addition, 10 μl of the inhibitors and 20 μl of CD38 hydrolase enzyme were added to the wells. For wells designated blank, 10 μl and 20 μl of 1× CD38 hydrolase buffer was added respectively in place of […]. The plate was covered and incubated 30 min at room temperature with slow shaking at 400 rpm. After 30 min incubation, the plate was removed and 10 μl of diluted F-NAD substrate was added to all the wells. The plate is incubated for 10 min, spun at 1200 rpm for 30 secs to remove bubbles and read in Tecan Spark using a fluorometer setting of excitation 300 nm and emission 410 nm. The reading for the blank was subtracted from all the values. IC50 for the test compounds were determined by using Graphpad prism software v7.0.", "units": {"IC50": "nM"}}
{"smiles": "COCCO[C@H]1CC[C@H](NC(=O)c2cc(-n3ccnc3)cc(-c3cncs3)n2)CC1", "note": "[Ex. 10, 4-(1H-imidazol-1-yl)-N-((1r,4r)-4-(2-methoxyethoxy)cyclohexyl)-6-(thiazol-5-yl)picolinamide]", "IC50": 4900}
{"smiles": "COCCO[C@H]1CC[C@H](NC(=O)c2cc(-c3cnn(C)c3)cc(-n3ccnc3)n2)CC1", "note": "[Ex. 12, 6-(1H-imidazol-1-yl)-N-((1r,4r)-4-(2-methoxyethoxy)cyclohexyl)-4-(1-methyl-1H-pyrazol-4-yl)picolinamide]", "IC50": 5}
{"smiles": "COCCO[C@H]1CC[C@H](NC(=O)c2cc(-c3cnn(C(C)C)c3)cc(-n3ccnc3)n2)CC1", "note": "[Ex. 13, 6-(1H-imidazol-1-yl)-4-(1-isopropyl-1H-pyrazol-4-yl)-N-((1r,4r)-4-(2-methoxyethoxy)cyclohexyl)picolinamide]", "IC50": 40}
{"smiles": "COCCO[C@H]1CC[C@H](NC(=O)c2cc(N)cc(-n3ccnc3)n2)CC1", "note": "[Ex. 15, 4-amino-6-(1H-imidazol-1-yl)-N-((1r,4r)-4-(2-methoxyethoxy)cyclohexyl)picolinamide]", "IC50": 42}
{"smiles": "COCCO[C@H]1CC[C@H](NC(=O)c2cc(-n3ccnc3)cc(-n3ccnc3)n2)CC1", "note": "[Ex. 16, 4,6-di(1H-imidazol-1-yl)-N-((1r,4r)-4-(2-methoxyethoxy)cyclohexyl)picolinamide]", "IC50": 6.8}
{"smiles": "COCCO[C@H]1CC[C@H](NC(=O)c2cc(-c3cncs3)cc(-n3ccnc3)n2)CC1", "note": "[Ex. 17, 6-(1H-imidazol-1-yl)-N-((1r,4r)-4-(2-methoxyethoxy)cyclohexyl)-4-(thiazol-5-yl)picolinamide]", "IC50": 7}
{"smiles": "COCCO[C@H]1CC[C@H](NC(=O)c2ccnc(-n3ccnc3)c2)CC1", "note": "[Ex. 21, 2-(1H-imidazol-1-yl)-N-((1r,4r)-4-(2-methoxyethoxy)cyclohexyl)isonicotinamide]", "IC50": 996}
{"smiles": "COCCO[C@H]1CC[C@H](NC(=O)c2cc(-c3cnn(C)c3)nc(-n3ccnc3)n2)CC1", "note": "[Ex. 27, 2-(1H-imidazol-1-yl)-N-((1r,4r)-4-(2-methoxyethoxy)cyclohexyl)-6-(1-methyl-1H-pyrazol-4-yl)pyrimidine-4-carboxamide]", "IC50": 4.2}
